Key:
[1] = SAD study: indirect calorimetry, resting metabolic rate (RMR); settings: single doses as high as 1400 mg, first 33 hours of IC assessments
[2] = MAD study: resting energy expenditure (REE) / RMR
[3] = Phase 2a trial: safety and tolerability, adverse events (Table 5)
[4] = Preliminary investigations into drug-drug interaction potential
[5] = Phase 2a trial: InBody body weight (Tables 10, 11); settings: for InBody body weight change at Day 61, Difference of LS Mean and Placebo (SEM) / InBody body weight mean change from baseline at Day 61, LS Mean (SEM): FAS population
[6] = Phase 2a trial: abdominal MRI subcutaneous adipose tissue (Table 13); settings: FAS population, difference is placebo minus dose group
[7] = Single-dose tolerability and repeat-dose toxicity, mice; settings: 7-days
[8] = Phase 2a trial: high sensitivity C-reactive protein (hsCRP) (Table 15); settings: Day 61, FAS population

Cn1c(COc2ccc([N+](=O)[O-])cc2[N+](=O)[O-])cnc1[N+](=O)[O-]
maximum increase in RMR [1]: approximately 20%
increase in RMR ([2]; 200 mg daily oral, by Day 7, sustained to day 15, MAD cohort 1): approximately 10%
anticipated increase in RMR ([2]; 400 mg QD for 14 days): 20%
anticipated increase in RMR ([2]; 550 mg QD projected dose): 30%
increase in resting energy expenditure (REE) compared to placebo ([2]; MAD QD dosing period (FIG. 7)): about 29%
Number of adverse events: All TEAEs ([3]; 150 mg daily (N = 20)): 42
Number of adverse events: Serious TEAEs ([3]; 150 mg daily (N = 20)): 0
Number of adverse events: Treatment-related TEAEs ([3]; 150 mg daily (N = 20)): 24
Subjects with at least 1 Severe TEAE, % ([3]; 150 mg daily (N = 20)): (5.0) %
Subjects with at least 1 TEAE leading to withdrawal of study drug, % ([3]; 150 mg daily (N = 20)): (10.0) %
Subjects with at least 1 Treatment-emergent adverse event (TEAE), % ([3]; 150 mg daily (N = 20)): (65.0) %
Subjects with at least 1 Treatment-related TEAE, % ([3]; 150 mg daily (N = 20)): (45.0) %
Treatment-related TEAE of maximum severity Mild, % ([3]; 150 mg daily (N = 20)): (25.0) %
Treatment-related TEAE of maximum severity Moderate, % ([3]; 150 mg daily (N = 20)): (15.0) %
Treatment-related TEAE of maximum severity Severe, % ([3]; 150 mg daily (N = 20)): (5.0) %
Number of adverse events: All TEAEs ([3]; 300 mg daily (N = 21)): 53
Number of adverse events: Serious TEAEs ([3]; 300 mg daily (N = 21)): 0
Number of adverse events: Treatment-related TEAEs ([3]; 300 mg daily (N = 21)): 37
Subjects with at least 1 TEAE leading to withdrawal of study drug, % ([3]; 300 mg daily (N = 21)): (4.8) %
Subjects with at least 1 Treatment-emergent adverse event (TEAE), % ([3]; 300 mg daily (N = 21)): (81.0) %
Subjects with at least 1 Treatment-related TEAE, % ([3]; 300 mg daily (N = 21)): (76.2) %
Treatment-related TEAE of maximum severity Mild, % ([3]; 300 mg daily (N = 21)): (41.6) %
Treatment-related TEAE of maximum severity Moderate, % ([3]; 300 mg daily (N = 21)): (28.6) %
Number of adverse events: All TEAEs ([3]; 450 mg daily (N = 19)): 54
Number of adverse events: Serious TEAEs ([3]; 450 mg daily (N = 19)): 0
Number of adverse events: Treatment-related TEAEs ([3]; 450 mg daily (N = 19)): 34
Subjects with at least 1 Treatment-emergent adverse event (TEAE), % ([3]; 450 mg daily (N = 19)): (84.2) %
Subjects with at least 1 Treatment-related TEAE, % ([3]; 450 mg daily (N = 19)): (73.7) %
Treatment-related TEAE of maximum severity Mild, % ([3]; 450 mg daily (N = 19)): (57.9) %
Treatment-related TEAE of maximum severity Moderate, % ([3]; 450 mg daily (N = 19)): (15.8) %
Number of adverse events: All TEAEs ([3]; All CM1 (N = 60)): 149
Number of adverse events: Serious TEAEs ([3]; All CM1 (N = 60)): 0
Number of adverse events: Treatment-related TEAEs ([3]; All CM1 (N = 60)): 95
Subjects with at least 1 Severe TEAE, % ([3]; All CM1 (N = 60)): (1.7) %
Subjects with at least 1 TEAE leading to withdrawal of study drug, % ([3]; All CM1 (N = 60)): (5.0) %
Subjects with at least 1 Treatment-emergent adverse event (TEAE), % ([3]; All CM1 (N = 60)): (76.7) %
Subjects with at least 1 Treatment-related TEAE, % ([3]; All CM1 (N = 60)): (65.0) %
Treatment-related TEAE of maximum severity Mild, % ([3]; All CM1 (N = 60)): (43.3) %
Treatment-related TEAE of maximum severity Moderate, % ([3]; All CM1 (N = 60)): (20.0) %
Treatment-related TEAE of maximum severity Severe, % ([3]; All CM1 (N = 60)): (1.7) %
subjects with diarrhea (TEAE) ([3]; Compound 1 subjects, all doses): 25%
subjects with transient flushing associated with alcohol intake (TEAE) ([3]; Compound 1 subjects, all doses): 31.6%
Serious Adverse Events or deaths ([3]; all dose levels, 61 days): No Serious Adverse Events or deaths were reported
tolerability ([3]; all dose levels, 61 days): well-tolerated
drug-drug interaction potential [4]: have not revealed the potential for drug-drug interactions
InBody body weight change at Day 61, Difference of LS Mean and Placebo (SEM) ([5]; CM1 150 mg (N = 20)): −0.93 (1.467)
InBody body weight mean change from baseline at Day 61, LS Mean (SEM) ([5]; CM1 150 mg (N = 20)): −1.14 (1.028)
InBody body weight change at Day 61, Difference of LS Mean and Placebo (SEM) ([5]; CM1 300 mg (N = 21)): −3.71 (1.435)
InBody body weight mean change from baseline at Day 61, LS Mean (SEM) ([5]; CM1 300 mg (N = 21)): −3.92 (0.981)
InBody body weight change at Day 61, Difference of LS Mean and Placebo (SEM) ([5]; CM1 450 mg (N = 18)): −5.83 (1.471)
InBody body weight mean change from baseline at Day 61, LS Mean (SEM) ([5]; CM1 450 mg (N = 18)): −6.04 (1.034)
Body weight observed, Day 61, difference Placebo vs. dose ([5]; Placebo vs. 150 mg): 1.131
Body weight observed, Day 61, difference Placebo vs. dose ([5]; Placebo vs. 300 mg): 3.904
Body weight observed, Day 61, difference Placebo vs. dose ([5]; Placebo vs. 450 mg): 6.014
Mean Diff. (Uncorrected Fisher's LSD), subcutaneous adipose tissue, percent change from baseline ([6]; Placebo vs. 150 mg once daily): 1.237%
Mean Diff. (Uncorrected Fisher's LSD), subcutaneous adipose tissue, percent change from baseline ([6]; Placebo vs. 300 mg once daily): 3.327%
Mean Diff. (Uncorrected Fisher's LSD), subcutaneous adipose tissue, percent change from baseline ([6]; Placebo vs. 450 mg once daily): 3.811%
well tolerated dose [7]: up to 100 /kg/day
hsCRP change from baseline, Difference of LS Mean and Placebo (SEM) ([8]; 150 mg): −0.79 (0.656)
hsCRP mean change from baseline, LS Mean (SEM) ([8]; 150 mg): −0.22 (0.464)
hsCRP change from baseline, Difference of LS Mean and Placebo (SEM) ([8]; 300 mg): −1.60 (0.640)
